GLP1R inv ag – acts as inverse agonist at human GLP-1 receptor. P43220. HEK293 GLP-1R CRE-luciferase, luminescence, 24 h; GLP-1R form is constitutively active. Potency, µM (highest dose often 38.3 µM), actives largely listed as inhibitors. 410,000 compounds, 1.6% hits. AID 624417; also: nearly all actives have a fitted effect of over 55% in size
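Inverse agonism was detected as reduced cAMP-driven luciferase luminescence after 24 h compound treatment. The cells were HEK293 clones expressing constitutively active human GLP-1R with the reporter. Reporter-only and GPR119 cell lines served as counterscreen controls.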
PTHR1 ag – PTHR1 (human) receptor agonism; Q03431; HEK293 GP2 PTHR1 cells, GloSensor cAMP luminescence, 1 h; Potency, µM (doses to about 115 µM), hits mostly activators; 410,000 compounds, 0.075% hits; also: nearly all actives have a fitted effect of over 55% in size
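HEK-293-derived GP2 cells expressing PTHR1 and a GloSensor cAMP reporter, 3,000/well, plated overnight, given luciferin plus IBMX (each 0.5 mM as added) for 1 h at 37 °C, then compound for 1 h at 37 °C. Luminescence was read after 15 min at room temperature.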
GLP1R ag – GLP-1 receptor (human) agonism. P43220. Potency, µM (highest dose often 45.6 µM), actives largely listed as activators. HEK293 GLP-1R CRE-luciferase, luminescence, 4-6 h; cells express a hypersensitive GLP-1R form. 380,000 compounds, 0.007% hits
Pin1 inh – inhibitors of human Pin1 | Q13526 | Pin1 FP peptide displacement, HiFluor488, 10 min | Potency, µM (highest dose often 115 µM), actives largely listed as inhibitors | 390,000 compounds, 0.009% hits | AID 504891; active = well fitted inhibition curve with a large enough effect in the polarisation, with a control signal flat, not every such curve was filed as active; inconclusive = small, poorly fitted or top-dose-only effect, or effect the other way, or a change in a side signal; inactive = no such curve, though single readings can be large or run the other way; the % refers to the polarisation
miR-21 reporter – miR-21 reporter, rising signal | HeLa miR-21 FLuc reporter, luciferase, 48 h | Potency, µM (top dose mostly 38.3 µM) | 340,000 tested, under 10 active | AID 2288; active = well fitted rising curve with a large enough effect; inconclusive = small, poorly fitted or top-dose-only effect; inactive = no such curve, though single readings can be large or run the other way;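 note: miR-21 action dims this reporter so a rising signal means less miR-21 action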
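Compounds were titrated across several concentrations (up to approximately 40 uM) and incubated 48 hours with HeLa miR-21-FLuc reporter cells (miR-21 target sequence downstream of FLuc, endogenous miR-21). Readout was firefly luciferase luminescence after lytic detection reagent.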
GLP1R cytotox – cytotoxicity in counter-screen for GLP-1R inverse agonists. Potency, µM (series often up to 38.3 µM), most hits filed as inhibitors. 410,000 compounds, 0.13% hits. HEK293 cAMP-luciferase reporter cells, luminescence, 24 h;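 also: loss of luciferase light is scored as toxicity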
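Here, cytotoxicity is scored as loss of luminescence. The MLSMR collection was tested on cells seeded in medium containing 10% Nu serum, with a 24 hr compound exposure preceded by 12 hours of culture.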
Hits are given with their value. The list is not random: actives were taken first. Their share in the collection is about 1.7%. Unless noted, calls follow the shape of the dose curve; as a rule, active = well fitted curve in the direction sought with a large enough effect; inconclusive = small, poorly fitted or top-dose-only effect, or another doubt; inactive = no such curve, though single readings can be large; an effect the other way counts as inactive or inconclusive.

How did O=S(=O)(c1ccc(F)cc1)N1CCN(c2nc(-c3cccs3)nc3cc(Cl)ccc23)CC1 do in these assays?
Pin1 inh: inactive

Results for O=C1c2ccsc2SCCN1Cc1c(F)cccc1Cl ?
GLP1R inv ag: 13µM; PTHR1 ag: inactive; GLP1R ag: inactive; Pin1 inh: inactive; miR-21 reporter: inactive; GLP1R cytotox: inactive

Results for O=C1c2ccsc2SCCN1Cc1ccc(Cl)cc1Cl ?
GLP1R inv ag: inconclusive; PTHR1 ag: inactive; GLP1R ag: inactive; Pin1 inh: inactive; miR-21 reporter: inactive; GLP1R cytotox: inactive

How did O=C1c2ccsc2SCCN1Cc1c(Cl)cccc1Cl do in these assays?
GLP1R inv ag: 2.5µM; PTHR1 ag: inactive; GLP1R ag: inactive; Pin1 inh: inactive; miR-21 reporter: inactive; GLP1R cytotox: inactive

What do the screens show for `O=C1c2ccsc2SCCN1Cc1cccc(F)c1`?
GLP1R inv ag: inactive; PTHR1 ag: inactive; GLP1R ag: inactive; Pin1 inh: inactive; miR-21 reporter: inactive; GLP1R cytotox: inactive

Results for Nc1nc(NCc2ccc(Cl)cc2)c2[nH]cnc2n1 ?
Pin1 inh: inactive

What do the screens show for `O=C(/C=C/Nc1ccccc1)c1ccc(Cl)cc1Cl`?
GLP1R inv ag: 11µM; PTHR1 ag: inactive; GLP1R ag: inactive; Pin1 inh: inactive; miR-21 reporter: inactive; GLP1R cytotox: inactive

What do the screens show for `Cc1ccc(SCC(c2ccccc2)N2CCN(C)CCC2=O)cc1` (stereo not given)?
Pin1 inh: inactive

How did COc1ccc(C(C)C)cc1S(=O)(=O)NCCc1c(C)[nH]c2ccc(C)cc12 do in these assays?
GLP1R inv ag: 11µM; PTHR1 ag: inactive; Pin1 inh: inactive; miR-21 reporter: inconclusive; GLP1R cytotox: inactive

How did Cc1[nH]c2ccccc2c1CCNS(=O)(=O)c1ccc(S(N)(=O)=O)cc1 do in these assays?
GLP1R inv ag: inactive; PTHR1 ag: inactive; GLP1R ag: inactive; Pin1 inh: inconclusive; miR-21 reporter: inactive; GLP1R cytotox: inactive

Results for COc1cc(S(=O)(=O)NCCc2c(C)[nH]c3ccc(C)cc23)ccc1Br ?
GLP1R inv ag: 10µM; PTHR1 ag: inactive; Pin1 inh: inactive; miR-21 reporter: inactive; GLP1R cytotox: inactive

How did CC1CN(c2c(F)c(N)c3c(=O)c(C(=O)O)cn(C4CC4)c3c2F)CC(C)N1 (stereo not given) do in these assays?
GLP1R ag: inactive

What do the screens show for `CCOc1ccc(OCc2ccc(C(=O)NN=Cc3ccc[nH]3)cc2)cc1`?
GLP1R inv ag: inconclusive; PTHR1 ag: inactive; GLP1R ag: inactive; Pin1 inh: inactive; GLP1R cytotox: 2.2µM

What do the screens show for `O=C(N/N=C/c1ccc[nH]1)c1ccccc1OCc1ccc(F)cc1`?
GLP1R inv ag: inactive; PTHR1 ag: inactive; GLP1R ag: inactive; Pin1 inh: inactive; miR-21 reporter: inactive; GLP1R cytotox: inactive

Results for CCCCCCn1c(=O)n2n(c1=O)C[C@]1(OC(=O)NC3CCCC3)CN(S(=O)(=O)c3ccc(C)cc3)C[C@]1(O)C2 ?
GLP1R inv ag: inconclusive; PTHR1 ag: inactive; GLP1R ag: inactive; GLP1R cytotox: inactive

How did CCCCCCn1c(=O)n2n(c1=O)C[C@]1(OC(=O)NCC3CCCCC3)CN(S(=O)(=O)c3ccc(C)cc3)C[C@]1(O)C2 do in these assays?
GLP1R inv ag: 10µM; PTHR1 ag: inactive; GLP1R ag: inactive; GLP1R cytotox: inactive

Results for CCCCCCn1c(=O)n2n(c1=O)[C@@H]1CN(S(=O)(=O)c3ccc(C)cc3)C[C@]1(O)[C@@H](OC(=O)NCc1ccccc1)C2 ?
GLP1R inv ag: 11µM; PTHR1 ag: inactive; GLP1R ag: inactive; GLP1R cytotox: inactive

What do the screens show for `CCOc1ccc(C(=O)N2CCCC(c3nc(-c4ccc(C)o4)no3)C2)cc1` (stereo not given)?
GLP1R inv ag: 11µM; PTHR1 ag: inactive; GLP1R ag: inactive; Pin1 inh: inactive; miR-21 reporter: inactive; GLP1R cytotox: inactive

What do the screens show for `Cc1ccc(-c2noc(C3CCCN(C(=O)c4ccc(Cl)cc4)C3)n2)o1` (stereo not given)?
GLP1R inv ag: inconclusive; PTHR1 ag: inactive; GLP1R ag: inactive; Pin1 inh: inactive; miR-21 reporter: inconclusive; GLP1R cytotox: inactive

What do the screens show for `O=C(COC(=O)C12CC3CC(CC(Cl)(C3)C1)C2)NCc1ccco1`?
Pin1 inh: inactive

Results for O=C(NC(=S)N1CCCCCC1)c1ccccc1Cl ?
GLP1R inv ag: inconclusive; PTHR1 ag: inconclusive; GLP1R ag: inactive; Pin1 inh: inactive; miR-21 reporter: inactive; GLP1R cytotox: 5µM

Results for CCCSc1nsc(NC(=O)C(c2ccccc2)c2ccccc2)n1 ?
GLP1R inv ag: 3.2µM; PTHR1 ag: inactive; GLP1R ag: inactive; Pin1 inh: inactive; miR-21 reporter: inconclusive; GLP1R cytotox: inconclusive

Results for CCCSc1nsc(NC(=O)CC)n1 ?
GLP1R inv ag: inactive; PTHR1 ag: inactive; GLP1R ag: inactive; Pin1 inh: inactive; miR-21 reporter: inactive; GLP1R cytotox: inactive

Results for CC1c2cc3c(cc2CCN1C(=O)c1ccc(Br)cc1)OCCCO3 (stereo not given) ?
GLP1R inv ag: 3.2µM; PTHR1 ag: inactive; GLP1R ag: inactive; Pin1 inh: inactive; miR-21 reporter: inactive; GLP1R cytotox: inactive

Results for N#Cc1nc(NCC(F)F)c2ncn(-c3cccc(Cl)c3)c2n1 ?
Pin1 inh: inactive

Results for COC(=O)C1=C(C)N(c2ccc(Cl)c(Cl)c2)C(=O)C1 ?
GLP1R inv ag: 13µM; PTHR1 ag: inactive; GLP1R ag: inactive; Pin1 inh: inactive; miR-21 reporter: inactive; GLP1R cytotox: inactive

Results for COC(=O)C1=C(C)N(c2ccc(S(N)(=O)=O)cc2)C(=O)C1 ?
GLP1R inv ag: inactive; PTHR1 ag: inactive; GLP1R ag: inactive; Pin1 inh: inactive; miR-21 reporter: inactive; GLP1R cytotox: inactive

Results for COc1ccc(Cn2nnnc2C(c2ccccc2)N2CCN(c3ccccc3)CC2)cc1 (stereo not given) ?
Pin1 inh: inactive

What do the screens show for `CCn1nc(C)c(CN2CCc3c([nH]c4ccccc34)C2C(C)(C)C)c1C` (stereo not given)?
GLP1R inv ag: 7.1µM; PTHR1 ag: inactive; GLP1R ag: inactive; Pin1 inh: inactive; miR-21 reporter: inactive; GLP1R cytotox: inactive

How did CC(=O)Nc1ccc(CN2CCc3c([nH]c4ccccc34)C2C(C)(C)C)cc1 (stereo not given) do in these assays?
GLP1R inv ag: inconclusive; PTHR1 ag: inactive; GLP1R ag: inactive; Pin1 inh: inactive; miR-21 reporter: inactive; GLP1R cytotox: inactive

What do the screens show for `CCc1ccccc1NC(=O)Cn1nnc2sc3c(c2c1=O)CCC(C(C)(C)C)C3` (stereo not given)?
GLP1R inv ag: 11µM; PTHR1 ag: inactive; Pin1 inh: inactive; miR-21 reporter: inactive; GLP1R cytotox: inactive
